Key:
PSA-A2M = PSA-A2M (Homo sapiens, UniProt P07288); format: biochemical; settings: inhibitor 10 μM; 50% buffered human plasma; substrate Mu-SRKSQQY-AMC 300 μM
[1] = biological target: PSA complex formation with A2M and ACT (Homo sapiens, UniProt P07288); experiment: Western blot of PSA complex formation with A2M and ACT ± PSA inhibitor; format: binding; settings: inhibitor 10 μM, PSA 10 μg/mL, A2M 20 μg/mL or ACT 20 μg/mL, overnight, room temperature

Protein sequences, listed by entry. Tags and fused reporters are not part of them. Lines headed by an entry give the natural chain unless they say otherwise; changes in a name come on top. Residues count along the entry.
UniProt P07288, 25-261: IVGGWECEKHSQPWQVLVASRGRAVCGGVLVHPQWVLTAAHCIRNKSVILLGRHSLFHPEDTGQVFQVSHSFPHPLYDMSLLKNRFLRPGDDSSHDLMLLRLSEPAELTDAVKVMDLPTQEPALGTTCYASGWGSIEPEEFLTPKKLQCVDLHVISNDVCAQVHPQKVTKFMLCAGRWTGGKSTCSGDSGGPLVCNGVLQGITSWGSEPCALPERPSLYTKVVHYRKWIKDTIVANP

## Ahx-FSQn(boro)Bpg
PSA-A2M
  Inhibition of PSA activity after addition to human plasma: maintained the ability to inhibit PSA
[1]
  Blocking of PSA complex formation with A2M and ACT: able to block PSA complex formation with A2M and ACT

— article PMC8147660 (The Prostate, 2018)
